Experimental data reported in EP2377861B1, “Water-soluble bis-triazinyl-pyridines, bipyridines and terpyridines, synthesis and use of same” (Karlsruher Institut für Technologie, priority 2010, dated 2011).

Assay: Solubility in water
Assay type: physicochemical
Protocol: Graugrüner Feststoff, Ausbeute 1.25 g (78.5 %), Schmelzpunkt >350 °C. Löslichkeit in Wasser > 0.1 mol/L.
SO3-Ph-BTBP wurde aus 6,6'-Bis(5,6-diphenyl-1,2,4-triazin-3-yl)-2,2'-bipyridin analog zu SO3-Ph-BTP hergestellt. Löslichkeit in Wasser > 0.1 mol/L.

2,6-Bis(5,6-di(sulfophenyl)-1,2,4-triazin-3-yl)pyridine [SO3-Ph-BTP]
Löslichkeit in Wasser: > 0.1 mol/L
